Columns and labels:
[1] = target: Kappa-type opioid receptor (Homo sapiens) (UniProt P41145); test: Agonist activity at human kappa opioid receptor expressed in CHO cell membranes assessed as increase in [35S]-GTPgammaS binding after 1 hrs by TopCount scintillation counting assay relative to control
[2] = target: Mu-type opioid receptor (Homo sapiens) (UniProt P35372); test: Agonist activity at Gi/o coupled human mu opioid receptor expressed in HEK293T cells co-expressing luciferase based cAMP biosensor and GRK2 assessed as increase in cAMP accumulation after 15 mins by FLIPR assay relative to control
[3] = target: Mu-type opioid receptor (Homo sapiens) (UniProt P35372); test: Agonist activity at human mu opioid receptor expressed in HEK293T cells co-transfected with venus-tagged N-terminal beta-arrestin-2 assessed as increase in beta-arrestin-2 recruitment after 30 mins measured for 1 sec by BRET-based luciferase reporter gene assay relative to control
[4] = target: Kappa-type opioid receptor (Homo sapiens) (UniProt P41145); test: Agonist activity at kappa opioid receptor (unknown origin) assessed as increase in venus-tagged N-terminal beta-arrestin-2 recruitment by BRET assay relative to control
[5] = target: Kappa-type opioid receptor (Homo sapiens) (UniProt P41145); test: Agonist activity at kappa opioid receptor (unknown origin) expressed in HEK cells co-expressing luciferase based cAMP biosensor assessed as increase in cAMP accumulation after 20 to 30 mins by luciferase reporter gene assay relative to control
[6] = target: Kappa-type opioid receptor (Homo sapiens) (UniProt P41145); test: Agonist activity at human kappa opioid receptor expressed in human U2OS cells co-transfected with EFC and beta-arrestin-2 assessed as increase in beta-arrestin-2 recruitment after 90 mins by luminescence assay relative to control
[7] = target: Nociceptin receptor (Homo sapiens) (UniProt P41146); test: Agonist activity at human NOPR expressed in human BHK cells assessed as increase in beta-arrestin-2 recruitment relative to control
[8] = target: Nociceptin receptor (Homo sapiens) (UniProt P41146); test: Agonist activity at human NOPR expressed in human BHK cells assessed as inhibition of forskolin-mediated cAMP accumulation after 10 mins by radioimmuno assay relative to control
[9] = target: Nociceptin receptor (Homo sapiens) (UniProt P41146); test: Agonist activity at human NOPR expressed in human BHK cells assessed as increase in beta-arrestin-1 recruitment relative to control
[10] = target: Kappa-type opioid receptor (Homo sapiens) (UniProt P41145); test: Agonist activity at human kappa opioid receptor expressed in human U2OS cells co-transfected with GFP and beta-arrestin-2 assessed as increase in beta-arrestin-2 recruitment after 20 mins by Hoechst staining-based assay relative to control

Protein sequences, listed by entry. Tags and fused reporters are not part of them. Lines headed by an entry give the natural chain unless they say otherwise; changes in a name come on top.
UniProt P41145: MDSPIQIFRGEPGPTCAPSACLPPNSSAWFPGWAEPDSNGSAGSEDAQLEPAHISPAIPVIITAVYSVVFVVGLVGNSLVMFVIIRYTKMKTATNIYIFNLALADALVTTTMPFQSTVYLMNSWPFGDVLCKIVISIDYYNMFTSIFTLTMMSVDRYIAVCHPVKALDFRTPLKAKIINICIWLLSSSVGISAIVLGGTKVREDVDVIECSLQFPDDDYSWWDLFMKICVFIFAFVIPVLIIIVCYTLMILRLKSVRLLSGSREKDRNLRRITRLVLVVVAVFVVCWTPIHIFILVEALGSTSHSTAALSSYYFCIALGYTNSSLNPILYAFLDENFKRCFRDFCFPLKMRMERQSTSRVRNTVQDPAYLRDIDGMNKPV
UniProt P35372, whole entry, looked up: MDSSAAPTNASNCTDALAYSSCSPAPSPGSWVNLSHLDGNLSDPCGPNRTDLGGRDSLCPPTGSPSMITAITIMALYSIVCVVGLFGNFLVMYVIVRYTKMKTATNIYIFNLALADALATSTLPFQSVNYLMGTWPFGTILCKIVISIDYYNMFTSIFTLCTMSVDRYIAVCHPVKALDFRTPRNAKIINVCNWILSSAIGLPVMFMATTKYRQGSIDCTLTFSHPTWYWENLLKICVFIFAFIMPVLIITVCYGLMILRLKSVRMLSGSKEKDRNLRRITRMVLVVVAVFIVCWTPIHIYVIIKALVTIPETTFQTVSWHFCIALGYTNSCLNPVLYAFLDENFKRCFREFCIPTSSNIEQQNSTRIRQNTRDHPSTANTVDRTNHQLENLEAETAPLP
UniProt P41146: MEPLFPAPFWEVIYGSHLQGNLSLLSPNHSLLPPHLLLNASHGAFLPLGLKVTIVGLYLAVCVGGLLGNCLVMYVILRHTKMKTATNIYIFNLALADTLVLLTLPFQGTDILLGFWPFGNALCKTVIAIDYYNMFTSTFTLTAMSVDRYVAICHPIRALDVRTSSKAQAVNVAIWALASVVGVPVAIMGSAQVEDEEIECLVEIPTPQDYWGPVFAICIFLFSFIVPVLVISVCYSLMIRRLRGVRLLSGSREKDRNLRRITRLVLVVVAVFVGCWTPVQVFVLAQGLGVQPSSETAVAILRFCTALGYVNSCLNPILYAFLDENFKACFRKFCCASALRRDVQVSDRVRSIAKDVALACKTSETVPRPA

Cc1ccc(NC(=O)[C@H]2CC=C[C@H]3CCN(Cc4ccccc4F)C(=O)[C@@H]23)cc1C(F)(F)F
Emax [1]: 89%

CC(Cc1ccsc1)NC(=O)NCC(Cc1ccccc1)N(C)C (stereo unspecified)
Emax [2]: 88%
Emax [3]: 9.4%

COC(=O)[C@@H]1C[C@H](OC(=O)CSC#N)C(=O)[C@H]2[C@@]1(C)CC[C@H]1C(=O)O[C@H](c3ccoc3)C[C@]21C
Emax [4]: 126%
Emax [5]: 99%

Cc1ccc(CSc2nnc(-c3ccccn3)n2Cc2ccco2)cc1C(F)(F)F
Emax [1]: 94%
Emax [6]: 97%

COC(=O)CN1CN(c2ccccc2)C2(CCN(Cc3cccc4ccccc34)CC2)C1=O
Emax [7]: 29%
Emax [8]: 74%
Emax [9]: 58%

Ic1ccc(CSc2nnc(-c3ccccn3)n2Cc2cccnc2)cc1
Emax [10]: 101%

Reference: ChEMBL document CHEMBL4371007, “Biased Ligands of G Protein-Coupled Receptors (GPCRs): Structure-Functional Selectivity Relationships (SFSRs) and Therapeutic Potential” (J Med Chem, 2018)
